Measured values from patent US5489524A, “Chimeric protein that has a human Rho motif and deoxyribonuclease activity” (The United States of America as represented by the …, priority 1992, dated 1996).

System: Mammalian Endo-Exonuclease
Experiment: ss- and ds-DNase activities of the purified endo-exonuclease with divalent metal ions, NaCl, ATP or GTP (release of acid-soluble radioactivity from 32P-labeled pBR322 DNA)
Type: biochemical, Monkey
Settings: for Activity % ds-DNase / Activity % ss-DNase: 37° C.
Experimental: The assay mixture contained 100 mM Tris-HCl pH 8.0, 10 mM MgCl2, and 17 μg of ^32 P-labelled linearized plasmid DNA. One unit of activity is defined as the amount of deoxyribonuclease which renders 1 μg of DNA acid-soluble in 30 min at 37° C. The plasmid was labeled using a random oligo-priming kit (Pharmacia Fine Chemical).
The ratios are calculated with respect to the activity of 10 mM Mg^2+ (100%).
The nuclease activities of putative recombination nucleases of E. coli are known to be affected by ATP. Moreover S. cerevisiae endo-exonuclease is believed to contain a region homologous to GTP-binding sites. The effects of ATP and GTP on the purified mammalian endo-exonuclease were therefore chosen to study.

[1] = 0.1 mM nucleotide added, 10 mM Mg^2+
[2] = 0.5 mM nucleotide added, 10 mM Mg^2+
[3] = 1.0 mM nucleotide added, 10 mM Mg^2+
[4] = metal ion 0.5 mM, activity with 10 mM Mg^2+ = 100%
[5] = metal ion 5.0 mM, activity with 10 mM Mg^2+ = 100%

ability to replace Mg^2+ as cofactor | Ratio of Activities for ss/ds-DNase (metal ion 0.5 mM) | Activity % ds-DNase [4] [%] | Activity % ss-DNase [4] [%] | Ratio of Activities for ss/ds-DNase (metal ion 5.0 mM) | Activity % ds-DNase [5] [%] | Activity % ss-DNase [5] [%] | Compound | Activity % ds-DNase [1] [%] | Activity % ss-DNase [1] [%] | Activity % ds-DNase [2] [%] | Activity % ss-DNase [2] [%] | Activity % ds-DNase [3] [%] | Activity % ss-DNase [3] [%] | effect on ss-DNase and ds-DNase activities (0.1-1.0 mM)
 |  |  |  |  |  |  | Nc1ncnc2c1ncn2[C@@H]1O[C@H](COP(=O)(O)OP(=O)(O)OP(=O)(O)O)[C@@H](O)[C@H]1O [ATP] | 70 | 88 | 77 | 87 | 60 | 77 | slightly inhibited
partially substitute for Mg^2+ | 0.8 | 80 | 67 | 0.8 | 57 | 40 | [Ca+2] [Ca^2+] |  |  |  |  |  |  | 
